# According to PubChem BioAssay AID1671190 (National Center for Advancing Translational Sciences (NCATS), 2021):
# By UniProt entry, the sequences of proteins in these tests, tags left out.
# UniProt P18054, whole entry: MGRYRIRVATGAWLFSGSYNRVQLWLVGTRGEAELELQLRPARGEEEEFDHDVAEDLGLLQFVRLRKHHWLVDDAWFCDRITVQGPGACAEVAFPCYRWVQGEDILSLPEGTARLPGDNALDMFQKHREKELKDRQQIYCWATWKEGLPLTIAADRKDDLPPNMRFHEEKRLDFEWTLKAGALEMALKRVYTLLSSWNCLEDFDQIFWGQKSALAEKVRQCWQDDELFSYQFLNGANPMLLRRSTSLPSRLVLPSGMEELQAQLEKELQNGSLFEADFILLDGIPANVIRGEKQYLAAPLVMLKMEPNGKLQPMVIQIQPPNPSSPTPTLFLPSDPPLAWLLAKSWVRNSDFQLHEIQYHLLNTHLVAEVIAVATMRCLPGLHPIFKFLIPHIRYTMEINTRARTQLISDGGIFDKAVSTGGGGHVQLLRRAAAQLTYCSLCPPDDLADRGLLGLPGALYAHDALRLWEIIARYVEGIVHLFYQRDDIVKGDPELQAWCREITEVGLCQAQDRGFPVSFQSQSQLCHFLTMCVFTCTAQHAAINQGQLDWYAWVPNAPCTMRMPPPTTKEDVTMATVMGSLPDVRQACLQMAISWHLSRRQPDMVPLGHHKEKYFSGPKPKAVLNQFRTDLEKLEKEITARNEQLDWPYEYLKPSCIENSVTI
# This is a selection; strong and weak results do not stand in their true shares. Records with an inconclusive call do not appear. The source made the active and inactive calls. Calls come from the whole dose curve; as a rule, active = well fitted inhibition curve with a large enough effect; inconclusive = small, poorly fitted or top-dose-only effect, or another doubt; inactive = no such curve, though single readings can be large or run the other way.
# Molecular target: Polyunsaturated fatty acid lipoxygenase ALOX12 (Homo sapiens) (UniProt P18054)
# Test: Primary qHTS assay for inhibitors of human arachidonate 12S-lipoxygenase (ALOX12): Round 2
# Conditions: purified 12hLO, xylenol orange hydroperoxide absorbance; series mostly up to 108 µM; activity change, negative = inhibition: at the top concentration
# Source text: Assay Provider: Theodore R. Holman Ph.D. University of California, Santa Cruz, California Human lipoxygenase 12hLO is a member of the closely related lipoxygenase family of enzymes which catalyze the site-specific oxidation of arachidonic acid to various hormone precursor molecules and as such is a candidate for drug development in a variety of disease areas, such as cancer and inflammation. Inhibition of 12hLO activity was screened by utilizing arachidonic acid as a substrate. The extent of hydroperoxide product formation was measured by a secondary chromogenic reaction in which xylenol orange (XO, Sigma-Aldrich, cat. number 39,818-7) reacts with the ferric ions produced from the reaction between the hydroperoxide and ferrous ions. The Fe (III)-XO complex is characterized with red-shifted absorbance at 560 nm. A purified preparation of human 12hLO was supplied by Dr. Holman laboratory, University of California, Santa Cruz.
# PROTOCOL TABLE SEQUENCE No. (e.g., 1, 2, 3, etc.); […] (e.g., Cells, Incubation, Reagent, etc.); VALUE; DESCRIPTION 1; Enzyme; 3 uL; 150 nM 12hLO enzyme solution dispensed in 1536-well Greiner black, clear bottom plates. 2; Compound; 23 nL; compounds and controls were added. 3; Incubate; 15 min; room temperature. 4; Substrate; 1 uL; 40 uM arachidonic acid (final concentration). 5; Incubate; 30 min; room temperature. 6; Reagent; 4 uL; Fe-XO solution was added to each well. 7; Incubation; 30 min; room temperature 8; Detector; absorbance; Read 1 at 405 nm absorbance using ViewLux (Perkin-Elmer) CCD imager. 9; Detector; absorbance; Read 2 at 573 nm absorbance using ViewLux (Perkin-Elmer) CCD imager. NOTES (numbers refer to sequence above) 1; 150 nM 12hLO (final concentration) in buffer solution (25 mM Hepes, 0.01% Triton X-100, pH 7.0) was dispensed in columns 1, 2, 5-48. Column 1 is neutral (100% activity). Buffer only was dispensed in columns 3 and 4 as no enzyme negative controls. The plates were covered with metal lids with gas-exchange holes. 2; Compounds were pin transferred via a Kalypsys Pin Tool (Wako USA) in column 5-48. Control compound was transferred in column 2, titration of nordihydroguaiaretic acid (NDGA, Sigma-Aldrich, N5023) with top concentration of 20 mM in DMSO then 1:3 dilution in duplicate. Dilution factor of 23 nL into 4 uL final assay volume. 3; Covered assay plates were incubated for 15 min at room temperature. 4; Substrate was added to start the reaction; 40 uM arachidonic acid (Sigma-Aldrich, St. Louis, MO) was dispensed throughout the plate. 6; Chromogenic detection reagent solution (divalent iron/xylenol orange, Fe-XO) was added to each well: 200 uM xylenol orange, 300 uM ferrous ammonium sulfate prepared freshly in 50 mM sulfuric acid. 8, 9; Two absorbance readouts were obtained at 405 nm and at 573 nm using a ViewLux high-throughput CCD plate imager (Perkin-Elmer). The 573 to 405 (Read 2 / Read 1) absorbance ratio was used to compute reaction progress.
# % is set by controls: 0 for no effect and ±100 for the full control effect.
row,Compound,"activity change, negative = inhibition"
1,O=P1(N(CCCl)CCCl)SCCCS1,inactive: 9.38%
2,CCCCOc1ccc(C(=O)NCC2(N3CCOCC3)CCCCC2)cc1,inactive: 4.59%
3,CN(C)C1(CNC(=O)c2nn(C)c(=O)c3ccccc23)CCCCC1,inactive: -21.2%
4,O=C1CCN(Cc2ccccc2)CC1,inactive: 1.89%
5,CC(C)(C)n1nnnc1C(c1ccccc1)N1CCC(n2c(=O)[nH]c3ccccc32)CC1 (stereo unspecified),inactive: -7.65%
6,CCCCn1nnnc1C(c1ccc(OC)cc1)N1CCC(n2c(=O)[nH]c3ccccc32)CC1 (stereo unspecified),inactive: -7.24%
7,CCOC(=O)N1CCC(Nc2ccc(OC)cc2)CC1,inactive: -8.24%
8,COc1ccc(Cl)cc1C(=O)NCC1(N2CCOCC2)CCCCC1,inactive: -6.13%
9,O=C(OC1CN2CCC1CC2)C1c2ccccc2Oc2ccccc21 (stereo unspecified),inactive: 7.45%
10,CC1CN(CCc2ccccc2)CCC1=O (stereo unspecified),inactive: -29%
11,O=c1[nH]c2ccccc2n1C1CCN(C(c2cc3ccccc3o2)c2nnnn2C2CCCCC2)CC1 (stereo unspecified),inactive: -13.8%
12,O=C(NCC1(N2CCCCC2)CCCCC1)c1ccc(Cl)s1,inactive: 108%
13,N#CC1(Nc2ccccc2)CCN(Cc2ccccc2)CC1,inactive: 0%
14,O=C(NCC1(N2CCOCC2)CCCCC1)c1cc2ccccc2o1,inactive: 0%
15,Cc1cc(C)cc(N(C(=O)c2ccccc2)C2CCN(C(=O)OC(C)(C)C)CC2)c1,inactive: 2.26%
16,O=c1[nH]c2ccccc2n1C1CCN(C(c2ccccc2OC(F)(F)F)c2nnnn2C2CCCCC2)CC1 (stereo unspecified),inactive: -21.5%
17,O=C(NCC1(N2CCCCC2)CCCCC1)c1ccc(Cl)nc1,inactive: 25.6%
18,CCOC(=O)N1CCC(=O)CC1,inactive: -3.12% [at 22.9 µM]
19,Cc1cccc(NC2(C#N)CCN(Cc3ccccc3)CC2)c1,inactive: -28.3%

row,Compound,"activity change, negative = inhibition"
1,CSc1ccccc1C(=O)NCC1(N2CCCCC2)CCCCC1,inactive: 35%
2,CCCCn1nnnc1C(c1cccs1)N1CCC(n2c(=O)[nH]c3ccccc32)CC1 (stereo unspecified),inactive: -22.6%
3,CCCCn1nnnc1C(CC)N1CCC(n2c(=O)[nH]c3ccccc32)CC1 (stereo unspecified),inactive: 4.98%
4,O=C(NCC1(N2CCCCC2)CCCCC1)c1cccs1,inactive: -4.23%
5,O=C(NCC1(N2CCCCC2)CCCCC1)c1ccc(=O)[nH]c1,inactive: 2.36%
6,CCC(c1nnnn1C1CCCC1)N1CCC(n2c(=O)[nH]c3ccccc32)CC1 (stereo unspecified),inactive: -20.6%
7,COc1ccc(C(=O)NCC2(N3CCCCC3)CCCCC2)c(OC)c1OC,inactive: 0%
8,CC(C)(C)OC(=O)N1CCC(N(C(=O)c2ccccc2)c2ccc(F)cc2)CC1,inactive: 7.86%
9,COc1ccc(C(=O)NCC2(N3CCCCC3)CCCCC2)cc1,inactive: -3.63%
10,CCCOc1ccc(C(=O)NCC2(N(C)C)CCCCC2)cc1OC,inactive: 0%
11,O=C(NCC1(N2CCOCC2)CCCCC1)c1ccccc1Br,inactive: -24.5%
12,Cc1ccc(C(=O)NCC2(N(C)C)CCCCC2)o1,inactive: -0.997%
13,CCCCOc1ccccc1C(=O)NCC1(N2CCOCC2)CCCCC1,inactive: -29.9%
14,O=C(NCC1(N2CCOCC2)CCCCC1)c1c[nH]c2ccccc12,inactive: -25.5%
15,O=C(NCC1(N2CCCCC2)CCCCC1)c1cncc(Br)c1,inactive: 48.8%
16,CN1CCC(Nc2cccc(F)c2)CC1,inactive: -8.1%
17,COc1ccccc1C(=O)NCC1(N(C)C)CCCCC1,inactive: 15.4%
18,O=C(OC1CN2CCC1CC2)c1ccc([N+](=O)[O-])cc1 (stereo unspecified),inactive: 11.6%
19,O=C(NCC1(N2CCOCC2)CCCCC1)c1cc(F)c(F)cc1Cl,inactive: -21.4%

row,Compound,"activity change, negative = inhibition"
1,CCC(c1nnnn1C(C)(C)C)N1CCC(n2c(=O)[nH]c3ccccc32)CC1 (stereo unspecified),inactive: -8.61%
2,CCN(CC)CCCNc1ccccc1[N+](=O)[O-].O=[N+]([O-])c1cc([N+](=O)[O-])c(O)c([N+](=O)[O-])c1,inactive: -73.6%
3,CN(C)c1cccc(C(=O)NCC2(N3CCCCC3)CCCCC2)c1,inactive: 12.3%
4,COc1ccc(CN(CCCl)CCCl)cc1Cl,inactive: 28.9%
5,CC(C)c1ccc(NC2CCN(C(=O)OC(C)(C)C)CC2)cc1,inactive: -11.4%
6,COc1ccc(NC2CCN(C(=O)OC(C)(C)C)CC2)cc1,inactive: 6.93%
7,CC(C)c1ccc(C(=O)NCC2(N3CCOCC3)CCCCC2)cc1,inactive: -15.3%
8,CCc1cc(C(=O)NCC2(N3CCOCC3)CCCCC2)sc1C,inactive: 6.23%
9,COc1cc(C(=O)NCC2(N3CCCCC3)CCCCC2)ccc1OC(F)F,inactive: -12.7%
10,O=C(NCC1(N2CCOCC2)CCCCC1)c1cc(=O)[nH]c2ccccc12,inactive: 109%
11,O=C(NCC1(N2CCCCC2)CCCCC1)c1cccc(C(F)(F)F)c1,inactive: -16.1%
12,O=[N+]([O-])c1cc([N+](=O)[O-])c(NCC2CCS(=O)(=O)C2)c([N+](=O)[O-])c1 (stereo unspecified),inactive: -16.1%
13,O=C(NCC1(N2CCCCC2)CCCCC1)c1cccc([N+](=O)[O-])c1,inactive: 0%
14,CCOc1ccc(C(=O)NCC2(N3CCOCC3)CCCCC2)cc1,inactive: -17.5%
15,CSc1ccc(C(=O)NCC2(N3CCOCC3)CCCCC2)cc1,inactive: -21.6%
16,N#CC1(Nc2ccccc2)CCN(CCc2ccccc2)CC1,inactive: 0%
17,O=c1[nH]c2ccccc2n1C1CCN(C(c2ccccc2OC(F)(F)F)c2nnnn2C2CCCC2)CC1 (stereo unspecified),inactive: 0.524%
18,O=C(NCC1(N2CCCCC2)CCCCC1)c1ccc(OC(F)F)cc1,inactive: 13.4%
